This data set has as its system rat muscle cells. The conditions noted are these: 2 days culture.

With `CC[C@H](C)C(=O)O[C@H]1C[C@@H](C)C=C2C=C[C@H](C)[C@H](CC[C@@H]3C[C@@H](O)CC(=O)O3)[C@H]21` [Lovastatin], the “specificity of toxicity, muscle cells versus adipocyte cells” value (0-1 μM) is recorded as “preferential toxicity of Lovastatin for the muscle cells”. Also, the “growth of muscle cells” value (0.5 μM) is “very inhibited in their growth”.
